The compounds below were run on HLA-A2 supertype molecules (A*0201, A*0202, A*0203, A*0206, A*6802) (assay: A2-supertype cross-reactive binding (number of the five alleles bound)). Conditions: number of the five A2-supertype alleles bound.
Set-up: species or system human
For `CC(C)C[C@H](NC(=O)[C@H](Cc1c[nH]cn1)NC(=O)[C@H](CC(C)C)NC(=O)[C@H](CO)NC(=O)[C@@H](NC(=O)[C@H](CS)NC(=O)[C@H](CCC(N)=O)NC(=O)[C@H](CC(C)C)NC(=O)[C@@H](N)CO)C(C)C)C(=O)O` [Peptide 60.0191], the “A2 Cross-Reactivity” value was 3. With `CSCC[C@H](N)C(=O)N[C@@H](CC(C)C)C(=O)N[C@@H](CC(C)C)C(=O)N[C@@H](CCCNC(=N)N)C(=O)N[C@@H](CC(C)C)C(=O)N[C@@H](CO)C(=O)N[C@@H](CCC(=O)O)C(=O)N1CCC[C@H]1C(=O)N[C@@H](C)C(=O)N[C@@H](CCC(=O)O)C(=O)N[C@H](C(=O)O)C(C)C` [Peptide 1389.12] the “A2 Cross-Reactivity” value was 3. In the case of `CSCC[C@H](NC(=O)[C@@H](N)Cc1ccccc1)C(=O)N[C@@H](CC(C)C)C(=O)N[C@@H](CS)C(=O)N[C@@H](C)C(=O)NCC(=O)N[C@@H](CC(C)C)C(=O)N[C@@H](Cc1c[nH]c2ccccc12)C(=O)N[C@H](C(=O)O)C(C)C` [Peptide 1418.22], the “A2 Cross-Reactivity” value is reported as 4. For `CC(C)C[C@H](NC(=O)[C@H](CCC(=O)O)NC(=O)[C@H](CCCNC(=N)N)NC(=O)[C@H](CC(C)C)NC(=O)[C@@H](N)CCCCN)C(=O)N[C@@H](CO)C(=O)N[C@@H](CCC(=O)O)C(=O)N[C@@H](CC(C)C)C(=O)N[C@@H](CO)C(=O)N[C@H](C(=O)O)C(C)C` [Peptide 63.0048], the “A2 Cross-Reactivity” value was 4. With `CC(C)[C@H](NC(=O)[C@@H]1CCCN1C(=O)[C@@H](NC(=O)[C@H](C)NC(=O)CNC(=O)[C@@H](NC(=O)[C@H](CS)NC(=O)CNC(=O)[C@@H](NC(=O)[C@@H](N)CO)C(C)C)[C@@H](C)O)C(C)C)C(=O)O` [Peptide 1418.35] the “A2 Cross-Reactivity” value was 4. With `CC(C)C[C@H](NC(=O)[C@@H](NC(=O)[C@H](CO)NC(=O)[C@H](CCCNC(=N)N)NC(=O)[C@H](CC(=O)O)NC(=O)[C@H](CC(C)C)NC(=O)[C@H](Cc1c[nH]c2ccccc12)NC(=O)[C@H](Cc1ccccc1)NC(=O)[C@H](Cc1ccccc1)NC(=O)[C@H](CC(C)C)NC(=O)[C@@H](N)CC(C)C)C(C)C)C(=O)O` [Peptide 63.0139] the “A2 Cross-Reactivity” value was 3. `CC(C)C[C@H](NC(=O)[C@H](CC(=O)O)NC(=O)CNC(=O)[C@H](CCC(=O)O)NC(=O)[C@@H]1CCCN1C(=O)[C@@H](NC(=O)CN)[C@@H](C)O)C(=O)N[C@H](C(=O)N[C@@H](Cc1ccc(O)cc1)C(=O)N[C@H](C(=O)O)C(C)C)C(C)C` [Peptide 1418.29] was tested, and the “A2 Cross-Reactivity” value was 4. In the case of `CSCC[C@H](NC(=O)[C@H](CC(=O)O)NC(=O)[C@H](CC(N)=O)NC(=O)[C@H](CO)NC(=O)[C@H](CC(C)C)NC(=O)[C@@H](N)CC(C)C)C(=O)N[C@@H](CS)C(=O)N[C@@H](C)C(=O)N[C@@H](CCCNC(=N)N)C(=O)N[C@H](C(=O)O)C(C)C` [Peptide 1418.53], the “A2 Cross-Reactivity” value is reported as 4. For `CC(C)C[C@H](NC(=O)[C@H](CCC(=O)O)NC(=O)[C@H](CCCCN)NC(=O)[C@H](C)NC(=O)[C@H](CC(C)C)NC(=O)[C@@H](N)C(C)C)C(=O)N[C@@H](CCCCN)C(=O)N[C@@H](Cc1ccccc1)C(=O)N[C@H](C(=O)N[C@H](C(=O)O)C(C)C)C(C)C` [Peptide 63.0034], the “A2 Cross-Reactivity” value was 4. In the case of `CC[C@H](C)[C@H](NC(=O)[C@H](CO)NC(=O)[C@@H](NC(=O)CN)C(C)C)C(=O)N[C@@H](Cc1c[nH]c2ccccc12)C(=O)N[C@@H](CC(N)=O)C(=O)N1CCC[C@H]1C(=O)N[C@H](C(=O)N[C@H](C(=O)O)C(C)C)[C@@H](C)CC` [Peptide 60.0207], the “A2 Cross-Reactivity” value is reported as 3. In the case of `CSCC[C@H](NC(=O)[C@H](CC(=O)O)NC(=O)[C@H](CC(N)=O)NC(=O)[C@H](CO)NC(=O)[C@H](CC(C)C)NC(=O)[C@H](CC(C)C)NC(=O)[C@@H](N)Cc1c[nH]cn1)C(=O)N[C@@H](CS)C(=O)N[C@@H](C)C(=O)N[C@@H](CCCNC(=N)N)C(=O)N[C@@H](C)C(=O)O` [Peptide 1419.15], the “A2 Cross-Reactivity” value is reported as 4. In the case of `CC(C)C[C@H](NC(=O)[C@@H](NC(=O)[C@H](CC(C)C)NC(=O)[C@@H](N)Cc1ccccc1)[C@@H](C)O)C(=O)N[C@@H](CO)C(=O)N[C@H](C(=O)N[C@H](C(=O)N[C@@H](Cc1c[nH]c2ccccc12)C(=O)N[C@H](C(=O)O)C(C)C)[C@@H](C)O)C(C)C` [Peptide 60.0216], the “A2 Cross-Reactivity” value is reported as 4. In the case of `CC(C)C[C@H](NC(=O)[C@H](Cc1ccccc1)NC(=O)[C@@H](NC(=O)[C@@H](N)C(C)C)C(C)C)C(=O)N[C@H](C(=O)N[C@@H](CC(C)C)C(=O)N[C@@H](CO)C(=O)N[C@H](C(=O)N[C@H](C(=O)N[C@@H](Cc1c[nH]c2ccccc12)C(=O)N[C@H](C(=O)O)C(C)C)[C@@H](C)O)C(C)C)[C@@H](C)O` [Peptide 63.0185], the “A2 Cross-Reactivity” value is reported as 4. `CC(C)C[C@H](NC(=O)[C@H](CC(C)C)NC(=O)[C@H](Cc1ccccc1)NC(=O)[C@H](CC(C)C)NC(=O)[C@@H](N)Cc1ccccc1)C(=O)N[C@@H](Cc1ccccc1)C(=O)N[C@@H](Cc1ccccc1)C(=O)N[C@@H](Cc1c[nH]c2ccccc12)C(=O)N[C@H](C(=O)O)C(C)C` [Peptide 60.0203] was tested, and the “A2 Cross-Reactivity” value was 4. For `CC[C@H](C)[C@H](NC(=O)[C@H](Cc1c[nH]c2ccccc12)NC(=O)[C@@H](NC(=O)[C@@H](NC(=O)[C@H](CO)NC(=O)[C@H](CC(C)C)NC(=O)[C@@H](N)[C@@H](C)O)C(C)C)[C@@H](C)O)C(=O)NCC(=O)N[C@H](C(=O)O)C(C)C` [Peptide 60.0217], the “A2 Cross-Reactivity” value was 4.

Same assay, conditions: number of the five A2 supertype alleles bound at <200nM
With `CC[C@H](C)[C@H](NC(=O)[C@H](Cc1c[nH]c2ccccc12)NC(=O)[C@@H](NC(=O)[C@@H](NC(=O)[C@H](CO)NC(=O)[C@H](CC(C)C)NC(=O)[C@@H](NC(=O)[C@H](CC(C)C)NC(=O)[C@@H](N)Cc1ccccc1)[C@@H](C)O)C(C)C)[C@@H](C)O)C(=O)NCC(=O)N[C@H](C(=O)O)C(C)C` [Peptide 1419.27] the “Cross-Reactivity (<200nM)” value was 5.

These compounds were tested against HLA-A*0201 (Homo sapiens, UniProt P04439, D140Y/D185E/D98H/E176V/E277Q/G131W/G231S/I119V/I121R/I166T/I218V/L300P/L318F/N151K/N90K/P208A/P217A/Q86G/Q94H/R138H/R169H/T345S) (assay: HLA class I binding assay, purified HLA, inhibition of 125I-labelled probe peptide). Conditions: A*[…], A2 supermotif cross-reactive binding data.
With `CC(C)C[C@H](NC(=O)[C@@H]1CCCN1)C(=O)N[C@H](C(=O)N[C@@H](CS)C(=O)N[C@@H](CC(N)=O)C(=O)NCC(=O)N[C@H](C(=O)N[C@@H](CC(C)C)C(=O)N[C@@H](CCC(N)=O)C(=O)NCC(=O)N[C@H](C(=O)O)C(C)C)C(C)C)C(C)C` [Peptide 1419.17] the IC50 was 0.027 µM. `CC(C)C[C@H](NC(=O)[C@H](CO)NC(=O)[C@H](CC(C)C)NC(=O)[C@@H](N)CO)C(=O)NCC(=O)N[C@@H](Cc1ccccc1)C(=O)N[C@@H](CC(C)C)C(=O)N[C@@H](Cc1ccccc1)C(=O)N[C@@H](CC(C)C)C(=O)N[C@H](C(=O)O)C(C)C` [Peptide 1419.52] was tested, and the IC50 was 0.0018 µM.

Same assay, conditions: Binding affinity, Table XXII group headings ≦ 200 nM / > 200 nM; binding to HLA-A*0201
For `CC(C)C[C@H](NC(=O)[C@H](Cc1c[nH]c2ccccc12)NC(=O)[C@H](Cc1ccccc1)NC(=O)[C@H](Cc1ccccc1)NC(=O)[C@H](CC(C)C)NC(=O)[C@@H](N)CC(C)C)C(=O)N[C@@H](CC(=O)O)C(=O)N[C@@H](CCCNC(=N)N)C(=O)N[C@@H](CO)C(=O)N[C@H](C(=O)O)C(C)C` [PAP.21], the IC50 was no more than 0.2 µM.

Same assay, conditions: Table XXII group headings ≦ 200 nM / > 200 nM; binding to HLA-A*0201; read-out: Binding affinity
`CC(C)C[C@H](NC(=O)[C@H](C)N)C(=O)NCC(=O)N[C@H](C(=O)N[C@H](C(=O)N[C@@H](CS)C(=O)N[C@@H](Cc1ccc(O)cc1)C(=O)N[C@@H](C)C(=O)O)[C@@H](C)O)[C@@H](C)O` [PSA.143] gave an IC50 of no more than 0.2 µM. In the case of `CSCC[C@H](NC(=O)[C@@H](N)CC(C)C)C(=O)N[C@@H](CC(C)C)C(=O)N[C@@H](CC(C)C)C(=O)N[C@@H](CCCNC(=N)N)C(=O)N[C@@H](CC(C)C)C(=O)N[C@@H](CO)C(=O)N[C@@H](CCC(=O)O)C(=O)N1CCC[C@H]1C(=O)N[C@@H](C)C(=O)O` [PSA.117], the IC50 is reported as no more than 0.2 µM. `CC[C@H](C)[C@H](NC(=O)[C@H](CC(=O)O)NC(=O)[C@H](Cc1ccccc1)NC(=O)[C@H](CC(C)C)NC(=O)[C@H](C)N)C(=O)N[C@@H](CCC(=O)O)C(=O)N[C@@H](CO)C(=O)N[C@@H](CCCCN)C(=O)N[C@H](C(=O)O)C(C)C` [PSM.711] gave an IC50 of no more than 0.2 µM. In the case of `CC(C)C[C@H](NC(=O)[C@H](CCCCN)NC(=O)[C@H](CCCCN)NC(=O)[C@@H]1CCCN1C(=O)[C@@H](NC(=O)[C@H](CC(C)C)NC(=O)[C@@H](N)Cc1ccccc1)[C@@H](C)O)C(=O)N[C@@H](CCC(N)=O)C(=O)N[C@@H](CS)C(=O)N[C@H](C(=O)O)C(C)C` [PSA.161], the IC50 is reported as no more than 0.2 µM. For `CC(C)C[C@H](NC(=O)[C@H](CO)NC(=O)[C@H](CCCNC(=N)N)NC(=O)[C@@H]1CCCN1C(=O)[C@H](CCCNC(=N)N)NC(=O)[C@H](CC(C)C)NC(=O)[C@@H](N)Cc1ccccc1)C(=O)N[C@@H](CCC(N)=O)C(=O)N[C@@H](CS)C(=O)N[C@H](C(=O)O)C(C)C` [HuK2.165], the IC50 was no more than 0.2 µM. For `CSCC[C@H](NC(=O)CN)C(=O)N1CCC[C@H]1C(=O)N[C@@H](CCC(=O)O)C(=O)NCC(=O)N[C@@H](CC(=O)O)C(=O)N[C@@H](CC(C)C)C(=O)N[C@H](C(=O)N[C@@H](Cc1ccc(O)cc1)C(=O)N[C@H](C(=O)O)C(C)C)C(C)C` [PSM.168], the IC50 was no more than 0.2 µM. With `CC[C@H](C)[C@H](N)C(=O)N[C@@H](CCSC)C(=O)N[C@@H](Cc1ccc(O)cc1)C(=O)N[C@@H](CO)C(=O)N[C@@H](C)C(=O)N[C@@H](Cc1c[nH]cn1)C(=O)N[C@@H](CC(=O)O)C(=O)N[C@H](C(=O)N[C@H](C(=O)N[C@H](C(=O)O)C(C)C)[C@@H](C)O)[C@@H](C)O` [PAP.284] the IC50 was no more than 0.2 µM. With `CSCC[C@H](NC(=O)[C@H](CC(C)C)NC(=O)[C@H](CCC(N)=O)NC(=O)[C@H](CC(=O)O)NC(=O)[C@H](CC(N)=O)NC(=O)[C@H](CCSC)NC(=O)[C@H](CCSC)NC(=O)[C@@H](N)CCCNC(=N)N)C(=O)N[C@@H](Cc1ccccc1)C(=O)N[C@@H](CC(C)C)C(=O)O` [PSM.662] the IC50 was no more than 0.2 µM. Compound `CC(C)C[C@H](NC(=O)[C@H](CCC(=O)O)NC(=O)[C@H](CCCCN)NC(=O)[C@H](C)NC(=O)[C@H](CC(C)C)NC(=O)[C@@H](N)C(C)C)C(=O)N[C@@H](CCCCN)C(=O)N[C@@H](Cc1ccccc1)C(=O)N[C@H](C(=O)O)C(C)C` [PAP.30] has an IC50 of no more than 0.2 µM. With `CC(C)C[C@H](NC(=O)[C@H](CC(C)C)NC(=O)[C@H](Cc1ccccc1)NC(=O)[C@H](Cc1ccccc1)NC(=O)CNC(=O)CNC(=O)[C@H](C)NC(=O)[C@H](CC(C)C)NC(=O)[C@@H](N)C(C)C)C(=O)O` [PSM.27] the IC50 was no more than 0.2 µM.

Source: patent publication US20040037843A1, “Inducing cellular immune responses to prostate cancer antigens using peptide and nucleic acid compositions” (priority 2003, published 2004)
